## Membrane permeability of cyclic peptides

PAMPA measures passive passage through an artificial lipid membrane. P is given in units of 10^-6 cm/s (from log10 values with two decimals); larger means faster passage.

* CC(C)C[C@H]1NC(=O)CN(Cc2ccccc2)C(=O)[C@H](C)N(C)C(=O)[C@@H]2CCCN2C(=O)[C@H](Cc2ccccc2)NC(=O)[C@H](CC(C)C)N(C)C(=O)[C@H]2CCCN2C1=O: PAMPA 4.8 × 10^-6 cm/s
* CC(C)C[C@@H]1NC(=O)[C@@H](CC(C)C)NC(=O)[C@@H](C)NC(=O)[C@H]2CCCN2C(=O)[C@H](Cc2ccccc2)NC(=O)[C@@H](CC(C)C)NC(=O)[C@H]2CCCN2C1=O: PAMPA 0.85 × 10^-6 cm/s
* CC(C)C[C@@H]1NC(=O)[C@H](CC(C)C)N(C)C(=O)[C@@H](C)N(C)C(=O)[C@@H]2CCCN2C(=O)[C@H](Cc2ccccc2)NC(=O)[C@H](CC(C)C)N(C)C(=O)[C@H]2CCCN2C1=O: PAMPA 9.1 × 10^-6 cm/s
* CC(C)C[C@@H]1NC(=O)[C@@H](C)N(C)C(=O)[C@H]2CCCN2C(=O)[C@H](Cc2ccccc2)NC(=O)CN(Cc2ccccc2)C(=O)[C@@H]2CCCN2C(=O)[C@H](CC(C)C)N(C)C1=O: PAMPA 4 × 10^-6 cm/s
* CC(C)C[C@@H]1NC(=O)[C@H]2CCCN2C(=O)[C@H](CC(C)C)NC(=O)[C@@H](CC(C)C)N(C)C(=O)C[C@H](Cc2ccccc2)NC(=O)[C@H](Cc2ccccc2)NC1=O: PAMPA 5.5 × 10^-6 cm/s
* CC(C)C[C@@H]1C(=O)N[C@@H](Cc2ccccc2)C(=O)N2CCC[C@H]2C(=O)N(C)[C@H](C)C(=O)N(Cc2ccccc2)CC(=O)N[C@@H](Cc2ccccc2)CC(=O)N2CCC[C@H]2C(=O)N1C: PAMPA 0.91 × 10^-6 cm/s
* CC(C)C[C@H]1NC(=O)C[C@H](Cc2ccccc2)NC(=O)[C@H]2CCCN2C(=O)[C@H](Cc2ccccc2)NC(=O)CN(Cc2ccccc2)C(=O)[C@H]2CCCN2C(=O)[C@H](CC(C)C)N(C)C1=O: PAMPA 1.4 × 10^-6 cm/s
* CC(C)C[C@@H]1NC(=O)[C@@H](C)N(C)C(=O)[C@H]2CCCN2C(=O)[C@H](Cc2ccccc2)NC(=O)CN(Cc2ccccc2)C(=O)[C@H]2CCCN2C(=O)CN(Cc2ccccc2)C1=O: PAMPA 1.9 × 10^-6 cm/s
* CC(C)C[C@H]1NC(=O)[C@H]2CCCN2C(=O)C[C@H](Cc2ccccc2)NC(=O)CN(Cc2ccccc2)C(=O)C[C@H](Cc2ccccc2)NC(=O)[C@H]2CCCN2C(=O)[C@H](Cc2ccccc2)NC1=O: PAMPA 0.81 × 10^-6 cm/s
* CC(C)C[C@@H]1C(=O)N[C@H](CC(C)C)C(=O)N2CCC[C@@H]2C(=O)N(C)[C@@H](CC(C)C)C(=O)N[C@@H](Cc2ccccc2)C(=O)N2CCC[C@@H]2C(=O)N[C@@H](C)C(=O)N1C: PAMPA 2.8 × 10^-6 cm/s
* CC(C)C[C@@H]1NC(=O)CN(Cc2ccccc2)C(=O)[C@H](C)N(C)C(=O)[C@@H]2CCCN2C(=O)[C@H](Cc2ccccc2)NC(=O)CN(Cc2ccccc2)C(=O)[C@@H]2CCCN2C1=O: PAMPA 1.5 × 10^-6 cm/s
* CC(C)C[C@@H]1C(=O)N[C@@H](Cc2ccccc2)C(=O)N[C@@H](C)C(=O)N[C@H](CC(C)C)C(=O)N(Cc2ccccc2)CC(=O)N2CCC[C@@H]2C(=O)N1C: PAMPA 0.55 × 10^-6 cm/s
* CCCN1CC(=O)N(Cc2ccccc2)CC(=O)N[C@@H](CC(C)C)C(=O)N2CCC[C@H]2C(=O)N(C)[C@H](CC(C)C)C(=O)N[C@@H](Cc2ccccc2)C(=O)N2CCC[C@@H]2C1=O: PAMPA 3.1 × 10^-6 cm/s
* CCCN1CC(=O)N(C)[C@H](CC(C)C)C(=O)N[C@H](CC(C)C)C(=O)N2CCC[C@@H]2C(=O)N(C)[C@@H](CC(C)C)C(=O)N[C@@H](Cc2ccccc2)C1=O: PAMPA 13 × 10^-6 cm/s
* CC(C)C[C@@H]1C(=O)N2CCC[C@H]2C(=O)N(C)[C@H](CC(C)C)C(=O)N[C@@H](Cc2ccccc2)C(=O)N2CCC[C@@H]2C(=O)N[C@@H](Cc2ccccc2)CC(=O)N[C@H](CC(C)C)C(=O)N1C: PAMPA 4.8 × 10^-6 cm/s
* CC(C)C[C@@H]1C(=O)N(C)[C@@H](CC(C)C)C(=O)N2CCC[C@H]2C(=O)N(C)[C@H](CC(C)C)C(=O)N[C@@H](Cc2ccccc2)C(=O)N2CCC[C@@H]2C(=O)N(C)[C@@H](C)C(=O)N1C: PAMPA 11 × 10^-6 cm/s
* CCCN1CC(=O)N[C@@H](CC(C)C)C(=O)N(C)[C@@H](CC(C)C)C(=O)N2CCC[C@@H]2C(=O)N(C)[C@@H](CC(C)C)C(=O)N[C@@H](Cc2ccccc2)C(=O)N2CCC[C@@H]2C1=O: PAMPA 11 × 10^-6 cm/s
* CC(C)C[C@@H]1NC(=O)[C@@H](C)NC(=O)[C@@H]2CCCN2C(=O)[C@H](Cc2ccccc2)NC(=O)[C@H](CC(C)C)NC(=O)[C@@H]2CCCN2C(=O)C[C@H](Cc2ccccc2)NC1=O: PAMPA 0.2 × 10^-6 cm/s
* CCCN1CC(=O)N(Cc2ccccc2)CC(=O)N(C)[C@@H](CC(C)C)C(=O)N2CCC[C@@H]2C(=O)N(C)[C@@H](CC(C)C)C(=O)N[C@@H](Cc2ccccc2)C(=O)N2CCC[C@H]2C1=O: PAMPA 5.6 × 10^-6 cm/s
* CC(C)C[C@@H]1NC(=O)[C@H](CC(C)C)N(C)C(=O)[C@H](C)NC(=O)[C@H](Cc2ccccc2)NC(=O)CN(Cc2ccccc2)C(=O)[C@@H]2CCCN2C1=O: PAMPA 2.3 × 10^-6 cm/s
* CCCN1CC(=O)N(C)[C@@H](CC(C)C)C(=O)N(Cc2ccccc2)CC(=O)N2CCC[C@H]2C(=O)N(C)[C@H](CC(C)C)C(=O)N[C@@H](Cc2ccccc2)C(=O)N2CCC[C@@H]2C1=O: PAMPA 4.9 × 10^-6 cm/s
* CC(C)C[C@@H]1C(=O)N[C@H](CC(C)C)C(=O)N2CCC[C@H]2C(=O)N(C)[C@H](CC(C)C)C(=O)N[C@@H](Cc2ccccc2)C(=O)N2CCC[C@@H]2C(=O)N(C)[C@@H](C)C(=O)N1C: PAMPA 2.2 × 10^-6 cm/s

2 of these entries, quoted again:

{"smiles": "CC(C)C[C@@H]1C(=O)N[C@@H](Cc2ccccc2)C(=O)N2CCC[C@H]2C(=O)N(C)[C@H](C)C(=O)N(Cc2ccccc2)CC(=O)N[C@@H](Cc2ccccc2)CC(=O)N2CCC[C@H]2C(=O)N1C", "PAMPA (10^-6 cm/s)": "0.91"}
{"smiles": "CC(C)C[C@@H]1NC(=O)CN(Cc2ccccc2)C(=O)[C@H](C)N(C)C(=O)[C@@H]2CCCN2C(=O)[C@H](Cc2ccccc2)NC(=O)CN(Cc2ccccc2)C(=O)[C@@H]2CCCN2C1=O", "PAMPA (10^-6 cm/s)": "1.5"}

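Conditions beyond the assay type are not listed; see the original paper. The list need not hold all peptides of the study. Peptides that the database sets to -10, its floor, are left out.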

Source: CycPeptMPDB (Li et al. 2023), which took these values from Townsend et al. 2020, doi:10.26434/chemrxiv.13335941.v1.